Data taken from patent US5935591A, “Method for treatment of equine protozoal myeloencephalitis with thiazolides” (Romark Laboratories, L.C., priority 1998, dated 1999).

Conditions: HPLC; horses; oral administration of pharmaceutical formulations of nitazoxanide

CC(=O)Oc1ccccc1C(=O)Nc1ncc([N+](=O)[O-])s1 [nitazoxanide, 2-(acetolyloxy)-N-(5-nitro 2-thiazoly) benzamide]
active metabolite of nitazoxanide in blood and cerebral spinal fluid: present in both the blood and the cerebral spinal fluid
